Data: US11925672B2, “Peptide having antioxidant activity and composition containing same” (SEMPIO FOODS COMPANY, priority 2018, dated 2024)
“Also recorded” adds a separate entry of the source.

Columns and labels:
SOD2 mRNA = SOD2 mRNA expression level by real-time PCR in Tert-BHP-treated HEK293 cells; type: cell-based; settings: Tert-BHP 300 μM, peptide 500 μM, 18 hours; for effect on SOD2 mRNA expression: FIG. 6; for SOD2 mRNA expression compared to positive control GSH: vs GSH
Description: The expression of SOD2 mRNA as another antioxidant factor was determined. The cell line culture, RNA extraction, cDNA synthesis and PCR experiments were performed in the same manner as in Experimental Example 5 above. A detailed description thereof is given below.
(§1) An HEK293 cell (kidney cell) line was seeded at a density of 6.6×10^5/well in DMEM (Dulbecco's Modified Eagle's Medium) medium on a 6-well plate and cultured at 37° C. and 5% CO2 for 24 hours. The next day, the medium was exchanged with serum and amino-acid-free media, and then the cells were further cultured for 20 hours or longer. The cells were treated with Tert-BHP (300 μM) and 500 μM 100 types of peptides, and then cultured for 18 hours.
RNA was extracted from the cells treated with 100 types of peptides in (1) using TRIzol (Thermo Fisher Scientific). A GoScript™ Reverse Transcription System (Promega, Wisconsin, USA) was used to synthesize cDNA from the RNA. The cDNA was synthesized by performing annealing with 1 μg RNA, 0.5 μg of an oligo dt primer, 0.5 μg of a random primer, and RT-PCR pre-mixture at 25° C. for 5 minutes, extension at 42° C. for 60 minutes, and inactivation at 70° C. for 15 minutes.
(§2) PCR was performed using Maxime™ PCR PreMix (i-StarTaq) (Intron Biotechnology, Korea). Real-time PCR was performed using SsoAdvanced™ Universal SYBR® Green Supermix (Bio-Rad, USA). 100 ng of cDNA, 2 μM (pmol/μl) primers, 10 μl of 2X SsoAdvanced™ Universal SYBR® Green Supermix and DW were added to the PCR plate well. Then, the temperature was cyclically adjusted to 95° C. for 3 minutes, 95° C. for 10 seconds and 58° C. for 40 seconds for a total of 40 cycles. A PCR reaction was performed using the CFX96 Touch™ Real-Time PCR Detection System (Bio-Rad, California, USA), and fluorescence intensity was measured at the end of each cycle.

[1] = DPPH-scavenging ability assay; type: biochemical; settings: peptides; vs GSH
Description: 2. DPPH (2,2-Diphenyl-1-Picryl-Hydrazyl-Hydrate) Assay Method
The antioxidant activity due to the DPPH-scavenging ability of yeast hydrolyzates was measured using the methods of Choi Chang-seop et al. (2003) and Shekhar et al. (2014). 20 μl of a sample (1 to 5000 μg/ml) dissolved in distilled water was added to 180 μl of an ethanol solution containing DPPH (0.111 mM). The resulting mixture was allowed to react at 25° C. for 30 minutes, and absorbance was measured at 517 nm. Ascorbic acid was used to create the standard curve, and DPPH-scavenging ability (%) was calculated and expressed by the equation of [(absorbance upon no addition of sample−absorbance of sample)/absorbance upon no addition of sample]×100.
(§3) The DPPH-scavenging ability and reducing power of the fractions of respective yeast hydrolyzates (Preparation Examples 1 to 4) were measured using the same method of measuring DPPH-scavenging ability and reducing power as in Experimental Example 1.

[2] = Reducing power assay (method of Oyaizu); settings: peptides; vs GSH
Description: 3. Reducing Power Assay Method
The reducing power of yeast hydrolysates was measured using the method of Oyaizu (1986). Specifically, a sample (1-5000 μg/ml, 60 μl) dissolved in distilled water was mixed with phosphate buffer (150 μl, 0.2M, pH 6.6) and potassium ferricyanide (K 3 Fe(CN) 6, 150 μl, 1%), followed by reacting at 50° C. for 20 minutes. Further, 150 μl of trichloroacetic acid (10%) was added thereto, followed by centrifugation at 2,000 g for 10 minutes. 150 μl of the supernatant containing the sample was added to 150 μl of DW and FeCl3 (30 μl, 0.1%). The resulting mixture was allowed to react at 25° C. for 10 minutes, and absorbance was measured at 700 nm.
as §3

Nrf2 mRNA = Nrf2 mRNA expression level by real-time PCR in Tert-BHP-treated HEK293 cells; type: cell-based; settings: Tert-BHP 300 μM, 18 hours; for effect on expression of Nrf2 mRNA / Nrf2 mRNA expression compared to positive control GSH: peptide 500 μM; for effect on expression of Nrf2 mRNA: FIGS. 5A to 5C; for Nrf2 mRNA expression compared to positive control GSH: vs GSH
Description: In the present invention, the antioxidant activity was compared between the 100 types of peptides, and the change in Nrf2 mRNA expression was measured through PCR in order to select the final peptide.
as §1, with “C. under” for “C. and”
RNA was extracted from the cells treated with 100 types of peptides in (1) using TRIzol (Thermo Fisher Scientific). A GoScript™ Reverse Transcription System (Promega, Wisconsin, USA) was used to synthesize cDNA from the RNA. The cDNA was synthesized by performing annealing using 1 μg of RNA, 0.5 μg of an oligo dt primer, 0.5 μg of a random primer and RT-PCR pre-mixture at 25° C. for 5 minutes, extension at 42° C. for 60 minutes, and inactivation at 70° C. for 15 minutes.
as §2, with “using a” for “using the”

| Substance | effect on SOD2 mRNA expression (SOD2 mRNA) | SOD2 mRNA expression compared to positive control GSH (SOD2 mRNA) | DPPH-scavenging ability of peptide compared to GSH [1] | reducing power of peptide compared to GSH [2] | effect on expression of Nrf2 mRNA (Nrf2 mRNA) | Nrf2 mRNA expression compared to positive control GSH (Nrf2 mRNA) | Nrf2 mRNA expression compared to positive control GSH (Nrf2 mRNA; listed as γ-GLU-CYS(S-Me) (02)) | increase of Nrf2 mRNA expression level compared to GSH (Nrf2 mRNA; same concentration as GSH (500 μM)) |
| --- | --- | --- | --- | --- | --- | --- | --- | --- |
| γ-GLU-HIS (EH; gamma-glutamyl linkage; The peptide is a formed by condensation of the gamma-carboxy group of L-glutamic acid with the amino group of L-histidine.) | increased SOD2 mRNA expression | comparable or superior; also recorded: statistically significant activity | comparable or superior to GSH | comparable or superior to GSH | improve the expression of Nrf2 mRNA | statistically significant activity; also recorded: comparable or superior to GSH |  |  |
| γ-GLU-CYS(S-Me)(O2) (EC; gamma-glutamyl linkage; S-methyl cysteine dioxide; In the peptide, Cys is Cys(Me)(O2), which is characterized in that the hydrogen of the thiol group is substituted with a methyl group and has a sulfoxide structure. Cys(Me)(O2) can be referred to as S-(methyl)-cysteine sulfoxide. The peptide is a formed by; (2)..(2) cysteine in which hydrogen of the thiol group is substituted with a methyl group and which has a sulfoxide structure) [γ-GLU-CYS(S-Me) (O2)] | increased SOD2 mRNA expression | comparable or superior; also recorded: statistically significant activity | comparable or superior to GSH | comparable or superior to GSH | improve the expression of Nrf2 mRNA | statistically significant activity; also recorded: comparable or superior to GSH | comparable or superior | more than four |
| γ-GLU-CYS(S-Me) (EC; gamma-glutamyl linkage; S-methyl cysteine; In the peptide, Cys is Cys(s-Me), which is characterized in that the hydrogen of the thiol group is substituted with a methyl group. The peptide is a formed by condensation of the gamma-carboxy group of L-glutamic acid with the amino group of; (2)..(2) cysteine in which hydrogen of the thiol group is substituted with a methyl group) | increased SOD2 mRNA expression | comparable or superior; also recorded: statistically significant activity |  |  | improve the expression of Nrf2 mRNA | comparable or superior; also recorded: statistically significant activity |  |  |
| γ-GLU-TYR (EY; gamma-glutamyl linkage; The peptide is a formed by condensation of the gamma-carboxy group of L-glutamic acid with the amino group of L-tyrosine.) | increased SOD2 mRNA expression | comparable or superior; also recorded: statistically significant activity |  |  | improve the expression of Nrf2 mRNA | comparable or superior; also recorded: statistically significant activity |  |  |
| γ-GLU-LEU (EL; gamma-glutamyl linkage; The peptide is a formed by condensation of the gamma-carboxy group of L-glutamic acid with the amino group of L-leucine.) | increased SOD2 mRNA expression | comparable or superior |  |  | improve the expression of Nrf2 mRNA | comparable or superior |  |  |
| γ-GLU-ALA (EA; gamma-glutamyl linkage; The peptide is formed by condensation of the gamma-carboxy group of L-glutamic acid with the amino group of L-alanine.) | increased SOD2 mRNA expression | comparable or superior |  |  | improve the expression of Nrf2 mRNA | comparable or superior |  |  |
| γ-GLU-VAL-ol (EV; gamma-glutamyl linkage; C-terminal valinol; In the peptide, Val is Valinol(2-Amino-3-methyl-1-butanol)(Val-ol). The peptide is a formed by condensation of the gamma-carboxy group of L-glutamic acid with the amino group of Val-ol; (2)..(2) valinol (2-amino-3-methyl-1-butanol)) | increased SOD2 mRNA expression | comparable or superior |  |  | improve the expression of Nrf2 mRNA | comparable or superior |  |  |
| γ-GLU-TRP (EW; gamma-glutamyl linkage; The peptide is a formed by condensation of the gamma-carboxy group of L-glutamic acid with the amino group of L-tryptophan.) | increased SOD2 mRNA expression | comparable or superior; also recorded: statistically significant activity |  |  | improve the expression of Nrf2 mRNA | comparable or superior; also recorded: statistically significant activity |  |  |
